This is an account of results in PubChem BioAssay AID651719 (The Scripps Research Institute Molecular Screening Center, 2012).

The chains behind the UniProt entries cited, without tags or fusion partners. Residues count along the entry.
UniProt O60755, 1-299 limits assumed: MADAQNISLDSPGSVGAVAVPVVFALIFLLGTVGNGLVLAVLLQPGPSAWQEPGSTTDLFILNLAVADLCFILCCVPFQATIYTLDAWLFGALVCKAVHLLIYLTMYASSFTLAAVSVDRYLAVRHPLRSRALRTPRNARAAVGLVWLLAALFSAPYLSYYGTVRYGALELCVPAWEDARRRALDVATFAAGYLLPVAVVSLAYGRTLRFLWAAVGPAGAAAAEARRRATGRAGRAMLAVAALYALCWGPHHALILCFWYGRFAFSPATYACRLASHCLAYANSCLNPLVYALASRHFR

Molecules are shown by their SMILES. The entries are a selection whose mix differs from that of the whole data set. Calls of active or inactive are those of the source.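 How the source made its calls: active means inhibition above the screen-wide average plus 3 SD (cut at about 13% in these data); inactive means the rest.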

This assay has as its target Galanin receptor type 3 (Homo sapiens) (UniProt O60755). Put plainly: GalR3 antagonists in HEK293 cells, primary screen, cell-based, fluorescence readout (AID 651719).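 Further: forskolin and galanin both at EC90 stimulate the cells; cAMP rise reported by CNG channel membrane potential dye signal; 0% = forskolin plus galanin with DMSO and 100% = forskolin alone.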 To be noted: HEK293 GalR3-CNG cAMP membrane potential fluorescence; at 3 µM; stronger effect = higher value; galR3 body fused to GalR1 C-terminus.
With `O=C(NCC1(N2CCCCC2)CCCCC1)c1ccc(Cl)nc1`, the inhibition (commonly the drop in the measured response relative to a control, in per cent) was inactive: 2.03%.

Take `O=c1[nH]c2ccccc2n1C1CCN(C(c2ccccc2OC(F)(F)F)c2nnnn2C2CCCCC2)CC1` (stereo not drawn): the inhibition was inactive: -5.56%. In the case of `Cc1cc(C)cc(N(C(=O)c2ccccc2)C2CCN(C(=O)OC(C)(C)C)CC2)c1`, the inhibition is inactive: -12.3%. Regarding `O=C(NCC1(N2CCOCC2)CCCCC1)c1cc2ccccc2o1`, the inhibition is inactive: -2.65%. In the case of `N#CC1(Nc2ccccc2)CCN(Cc2ccccc2)CC1` it was inactive: -5.25%; in that of `O=C(NCC1(N2CCCCC2)CCCCC1)c1ccc(Cl)s1`, inactive: -0.07%; in that of `O=c1[nH]c2ccccc2n1C1CCN(C(c2cc3ccccc3o2)c2nnnn2C2CCCCC2)CC1` (stereo not drawn), inactive: -6.06%. In the case of `O=C(OC1CN2CCC1CC2)C1c2ccccc2Oc2ccccc21` (stereo not drawn) it was inactive: -7.22%.

As for `COc1ccc(Cl)cc1C(=O)NCC1(N2CCOCC2)CCCCC1`, the inhibition is inactive: -3.38%. As for `CCOC(=O)N1CCC(Nc2ccc(OC)cc2)CC1`, the inhibition was inactive: -4.49%. With `CCCCn1nnnc1C(c1ccc(OC)cc1)N1CCC(n2c(=O)[nH]c3ccccc32)CC1` (stereo not drawn), the inhibition is inactive: -5.73%. The value for `COc1ccc(C(=O)NCC2(N3CCCCC3)CCCCC2)cc1` was inactive: -8.09%; that for `CC(C)(C)OC(=O)N1CCC(N(C(=O)c2ccccc2)c2ccc(F)cc2)CC1` was inactive: -11.8%. As to `COc1ccc(C(=O)NCC2(N3CCCCC3)CCCCC2)c(OC)c1OC`, the inhibition is inactive: -3.18%. In the case of `CCC(c1nnnn1C1CCCC1)N1CCC(n2c(=O)[nH]c3ccccc32)CC1` (stereo not drawn) it was inactive: -4.99%; in that of `O=C(NCC1(N2CCCCC2)CCCCC1)c1ccc(=O)[nH]c1`, inactive: 5.23%. For `O=C(NCC1(N2CCCCC2)CCCCC1)c1cccs1`, the inhibition was inactive: 4.79%. `CCCCn1nnnc1C(CC)N1CCC(n2c(=O)[nH]c3ccccc32)CC1` (stereo not drawn): the inhibition is inactive: -2.07%. For `CCCCn1nnnc1C(c1cccs1)N1CCC(n2c(=O)[nH]c3ccccc32)CC1` (stereo not drawn), the inhibition was inactive: -0.2%. In the case of `CSc1ccccc1C(=O)NCC1(N2CCCCC2)CCCCC1` it was inactive: -9.23%.

On to `Cc1cccc(NC2(C#N)CCN(Cc3ccccc3)CC2)c1`, for which the inhibition was inactive: 3.04%.

Turning to `O=c1[nH]c2ccccc2n1C1CCN(C(c2ccccc2)c2nnnn2C2CCCCC2)CC1` (stereo not drawn), the inhibition is inactive: -5.78%.

Turning to `CCOC(=O)N1CCC(Nc2cccc(C)c2)CC1`, the inhibition is inactive: -7.71%.

For `COc1cc(C(=O)NCC2(N(C)C)CCCCC2)ccc1OC(F)F`, the inhibition was inactive: -7.79%. The value for `O=c1[nH]c2ccccc2n1C1CCN(C(c2cccc3ccccc23)c2nnnn2C2CCCC2)CC1` (stereo not drawn) was inactive: -7.53%; that for `CC(C)(C)n1nnnc1C(c1ccccc1)N1CCC(n2c(=O)[nH]c3ccccc32)CC1` (stereo not drawn) was inactive: -8.37%. In the case of `O=C1CCN(Cc2ccccc2)CC1`, the inhibition was inactive: -6.39%.

Take `CCOc1ccc(C)cc1CN(CCCl)CCCl`: the inhibition is inactive: -0.14%. `CCCCOc1ccc(C(=O)NCC2(N3CCOCC3)CCCCC2)cc1`: the inhibition was inactive: 0.17%. As to `O=P1(N(CCCl)CCCl)SCCCS1`, the inhibition is inactive: -4.23%. In the case of `CCCCn1nnnc1C(c1cc2ccccc2o1)N1CCC(n2c(=O)[nH]c3ccccc32)CC1` (stereo not drawn) it was inactive: -6.82%. As to `O=C(NCC1(N2CCCCC2)CCCCC1)c1ccc(F)cc1`, the inhibition was inactive: -7.15%. As to `CCOC(=O)N1CCC(Nc2ccc(F)cc2)CC1`, the inhibition was inactive: -8.21%. The value for `COc1ccc(NC2CCN(CCc3ccccc3)CC2)c(OC)c1` was inactive: -5.19%; that for `O=C(NCC1(N2CCCCC2)CCCCC1)c1cccc(C(F)(F)F)c1` was inactive: -8.48%; that for `O=C(NCC1(N2CCOCC2)CCCCC1)c1cc(=O)[nH]c2ccccc12` was inactive: 4.42%.

Regarding `COc1cc(C(=O)NCC2(N3CCCCC3)CCCCC2)ccc1OC(F)F`, the inhibition is inactive: -8.83%. On to `CC(C)c1ccc(C(=O)NCC2(N3CCOCC3)CCCCC2)cc1`, for which the inhibition is inactive: 6.44%. In the case of `COc1ccc(NC2CCN(C(=O)OC(C)(C)C)CC2)cc1` it was inactive: 0.26%. In the case of `CN1CCN(CCOC(=O)C(O)(c2ccccc2)c2ccccc2)CC1` it was inactive: -0.09%; in that of `CCCCn1nnnc1C(c1cccc2ccccc12)N1CCC(n2c(=O)[nH]c3ccccc32)CC1` (stereo not drawn), inactive: -7.33%; in that of `CC(C)(C)n1nnnc1C(c1ccccc1OC(F)(F)F)N1CCC(n2c(=O)[nH]c3ccccc32)CC1` (stereo not drawn), inactive: -6.3%. In the case of `O=C(NCC1(N2CCCCC2)CCCCC1)c1ccc(OC(F)F)cc1`, the inhibition was inactive: 0.98%.

Turning to `CCN1CCC(Nc2ccc(Cl)cc2)CC1`, the inhibition was inactive: 0.43%. The value for `O=c1[nH]c2ccccc2n1C1CCN(C(c2ccccc2OC(F)(F)F)c2nnnn2C2CCCC2)CC1` (stereo not drawn) was inactive: 3.49%; that for `N#CC1(Nc2ccccc2)CCN(CCc2ccccc2)CC1` was inactive: -1.31%. The value for `CSc1ccc(C(=O)NCC2(N3CCOCC3)CCCCC2)cc1` was inactive: -1.25%. As to `O=C(NCC1(N2CCCCC2)CCCCC1)c1cccc([N+](=O)[O-])c1`, the inhibition is inactive: 4.73%. In the case of `CN1CCC(Nc2cccc(F)c2)CC1` it was inactive: -6.12%; in that of `O=C(NCC1(N2CCCCC2)CCCCC1)c1cncc(Br)c1`, inactive: 4.26%. In the case of `COc1ccc(C(c2nnnn2C2CCCC2)N2CCC(n3c(=O)[nH]c4ccccc43)CC2)cc1` (stereo not drawn) it was inactive: -6.07%; in that of `Cc1ccc(C(=O)NCC2(N(C)C)CCCCC2)o1`, inactive: -3.09%. In the case of `CCCOc1ccc(C(=O)NCC2(N(C)C)CCCCC2)cc1OC`, the inhibition was inactive: 1.2%.

As for `CC(C)c1ccc(NC2CCN(C(=O)OC(C)(C)C)CC2)cc1`, the inhibition was inactive: -3.59%. Regarding `COc1ccc(CN(CCCl)CCCl)cc1Cl`, the inhibition was inactive: -1.92%. `CN(C)c1cccc(C(=O)NCC2(N3CCCCC3)CCCCC2)c1`: the inhibition is inactive: -7.01%. In the case of `COc1cc(OC)c(C(=O)NCC2(N(C)C)CCCCC2)cc1OC` it was inactive: -12.3%; in that of `CCC(c1nnnn1C(C)(C)C)N1CCC(n2c(=O)[nH]c3ccccc32)CC1` (stereo not drawn), inactive: -4.96%.

Take `O=C(NCC1(N2CCOCC2)CCCCC1)c1cc(F)c(F)cc1Cl`: the inhibition is inactive: -4.99%. The value for `CCCCn1nnnc1C(c1ccnc2ccccc12)N1CCC(n2c(=O)[nH]c3ccccc32)CC1` (stereo not drawn) was inactive: -5.94%; that for `CCOC(=O)N1CCC(Nc2ccc(C)cc2)CC1` was inactive: -10.5%.

In the case of `COc1cccc(C(c2nnnn2C(C)(C)C)N2CCC(n3c(=O)[nH]c4ccccc43)CC2)c1OC` (stereo not drawn), the inhibition is inactive: -4.23%. With `N/C(=N\O)c1c(N)no[n+]1[O-]`, the inhibition was inactive: 2.43%. In the case of `O=C(OC1CN2CCC1CC2)C1c2ccccc2C=Cc2ccccc21` (stereo not drawn) it was inactive: -0.95%; in that of `O=c1[nH]c2ccccc2n1C1CCN(C(c2cccs2)c2nnnn2C2CCCC2)CC1` (stereo not drawn), inactive: -6.18%. As to `CCCCn1nnnc1C(c1cccc(OC)c1OC)N1CCC(n2c(=O)[nH]c3ccccc32)CC1` (stereo not drawn), the inhibition is inactive: -5.31%. Take `CCCCn1nnnc1C(c1ccccc1)N1CCC(n2c(=O)[nH]c3ccccc32)CC1` (stereo not drawn): the inhibition is inactive: -4.79%. Turning to `COc1cc(C(=O)NCC2(N3CCOCC3)CCCCC2)cc(OC)c1C`, the inhibition was inactive: -1.83%. On to `O=C(NCC1(N2CCOCC2)CCCCC1)c1cc(Br)ccc1Cl`, for which the inhibition is inactive: -4.13%. The value for `O=c1[nH]c2ccccc2n1C1CCN(C(c2cccs2)c2nnnn2C2CCCCC2)CC1` (stereo not drawn) was inactive: -0.97%; that for `COc1ccc(C(=O)NCC2(N3CCOCC3)CCCCC2)cc1OC` was inactive: -1.51%. The value for `O=c1[nH]c2ccccc2n1C1CCN(C(c2ccnc3ccccc23)c2nnnn2C2CCCC2)CC1` (stereo not drawn) was inactive: -4.11%. Turning to `CN(C)C1(CNC(=O)c2cccc(C#N)c2)CCCCC1`, the inhibition was inactive: -7.21%.

For `C/C(N)=N\P(=O)(Oc1ccccc1)Oc1ccccc1`, the inhibition was inactive: -6.11%.

Take `c1ccc(CN2CCC(Nc3ccccc3)CC2)cc1`: the inhibition was inactive: -1.41%.

In the case of `Cc1cc(N(CCCl)CCCl)ccc1C=O`, the inhibition was inactive: -2.58%.

Consider `O=c1[nH]c2ccccc2n1C1CCN(C(c2ccccc2)c2nnnn2C2CCCC2)CC1` (stereo not drawn), for which the inhibition was inactive: -6.31%. Take `CCCN1CCC(Nc2cc(OC)cc(OC)c2)CC1`: the inhibition is inactive: -8.34%.

Regarding `CC(C)(C)n1nnnc1C(c1cccc2ccccc12)N1CCC(n2c(=O)[nH]c3ccccc32)CC1` (stereo not drawn), the inhibition is inactive: -4.89%. In the case of `N#Cc1ccc(C(=O)NCC2(N3CCCCC3)CCCCC2)cc1` it was inactive: -3.95%; in that of `CC(C)(C)OC(=O)N1CCC(N(C(=O)c2ccccc2)c2ccc(Cl)cc2)CC1`, inactive: -13.8%. `Cc1ccccc1NC1(C#N)CCN(Cc2ccccc2)CC1`: the inhibition was inactive: 3.03%. The value for `CCN1CCC(Nc2cccc(F)c2)CC1` was inactive: -1.99%; that for `COc1ccc(C(c2nnnn2C2CCCCC2)N2CCC(n3c(=O)[nH]c4ccccc43)CC2)cc1` (stereo not drawn) was inactive: -1.9%. As for `CC(C)(C)n1nnnc1C(c1ccnc2ccccc12)N1CCC(n2c(=O)[nH]c3ccccc32)CC1` (stereo not drawn), the inhibition was inactive: 0.53%. Consider `O=C(NCC1(N2CCCCC2)CCCCC1)c1ccco1`, for which the inhibition was inactive: -1.14%. The value for `CN(C)c1ccc(C(=O)NCC2(N3CCCCC3)CCCCC2)cc1` was inactive: -1.1%. In the case of `Cn1c(=O)[nH]cc(N(CCCl)CCCl)c1=O` it was inactive: 2.98%; in that of `COc1cccc(C(c2nnnn2C2CCCCC2)N2CCC(n3c(=O)[nH]c4ccccc43)CC2)c1OC` (stereo not drawn), inactive: -5.92%; in that of `CC(=O)N(c1ccccc1)C1CCNCC1`, inactive: -3.86%. For the compound `CCC(c1nnnn1C1CCCCC1)N1CCC(n2c(=O)[nH]c3ccccc32)CC1` (stereo not drawn), the inhibition is inactive: 3.83%. For `COc1cc(OC)cc(C(=O)NCC2(N3CCCCC3)CCCCC2)c1`, the inhibition was inactive: -11.3%. Turning to `O=c1[nH]c2ccccc2n1C1CCN(C(c2ccnc3ccccc23)c2nnnn2C2CCCCC2)CC1` (stereo not drawn), the inhibition is inactive: -3.58%. As to `Cc1ccc(C(=O)NCC2(N3CCCCC3)CCCCC2)o1`, the inhibition is inactive: -2.76%. In the case of `Fc1ccccc1NC1CCN(Cc2ccccc2)CC1` it was inactive: -0.86%; in that of `Cc1ccc(NC2(C#N)CCN(Cc3ccccc3)CC2)cc1`, inactive: -4.53%. In the case of `COc1cccc(C(=O)N(c2cc(C)cc(C)c2)C2CCN(C(=O)OC(C)(C)C)CC2)c1` it was inactive: -11.8%. `COc1cccc(C(c2nnnn2C2CCCC2)N2CCC(n3c(=O)[nH]c4ccccc43)CC2)c1OC` (stereo not drawn): the inhibition was inactive: -3.88%. As for `COc1cc(OC)cc(C(=O)NCC2(N3CCOCC3)CCCCC2)c1`, the inhibition was inactive: -2.96%.

Consider `CCC(CO)(C(=O)OC1CN2CCC1CC2)c1ccccc1` (stereo not drawn), for which the inhibition is inactive: -2.09%.

Turning to `CN1CCC(Nc2ccc(Cl)cc2)CC1`, the inhibition was inactive: -10.7%. Take `CCOc1ncccc1C(=O)NCC1(N2CCOCC2)CCCCC1`: the inhibition is inactive: -3.29%.

For the compound `CN1CCC(Nc2ccc(F)c(Cl)c2)CC1`, the inhibition is inactive: -12.9%.

With `CC(C)(C)OC(=O)N1CCC(Nc2ccccc2)CC1`, the inhibition is inactive: 4.87%. The value for `NN(c1ccccc1)C1CCN(CCc2ccccc2)CC1` was inactive: -4.97%.

For `O=C(O)C1(Nc2ccccc2)CCN(Cc2ccccc2)CC1`, the inhibition was inactive: -6.82%.

Turning to `O=c1[nH]c2ccccc2n1C1CCN(C(c2cc3ccccc3o2)c2nnnn2C2CCCC2)CC1` (stereo not drawn), the inhibition was inactive: -3.82%. Turning to `CCCOc1ccc(C(=O)NCC2(N(C)C)CCCCC2)cc1`, the inhibition is inactive: -6.92%.
